Measurements taken from patent US20110224148A1, “CARBOHYDRATE-POLYAMINO ACID-DRUG CONJUGATES” (priority 2010, published 2011).

Test system: normal human plasma
Conditions: composition in saline at 5 mg/mL or 10 mg/mL; 30 μL added to 120 μL normal human plasma; STart 4 Coagulation Analyzer

glucosamine-PGGA-paclitaxel composition [Example 1]
clotting time (APTT test, FIG. 3): 50 to 60 s
